Antibody variant affinities, Ab-14 heavy chain, assay B

The measurements come from Li et al. 2023 (doi:10.1038/s41467-023-39022-2) through the FLAb antibody collection.

Target: peptide PDVDLGDISGINAS, taken from heptad repeat 2 (HR2) of SARS-CoV-2 spike.

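The variants were designed computationally from a first round of random CDR variants and then made and measured. Group labels follow the data file (Ctrl: baseline library sampled from a position-specific scoring matrix, with some repeated check sequences; GPLM: also part of the Gaussian process libraries; Gen: genetic algorithm; Gibbs: Gibbs sampling; a sequence that several methods proposed may carry one label only). The assay is AlphaSeq: two haploid yeast populations carry antibody and antigen on their surface. The frequency of each diploid, read from paired DNA barcodes, reflects how well the two displayed proteins bind. Scores were corrected for input abundance and mapped to Kd with protein pairs of known affinity run in the same pool. Each pool was mated in six replicate cultures.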

The variants keep the light chain, the linker and the frameworks of Ab-14 (scFv order VH, the linker GGGGSGGGGSGGGGS, VL).
VH: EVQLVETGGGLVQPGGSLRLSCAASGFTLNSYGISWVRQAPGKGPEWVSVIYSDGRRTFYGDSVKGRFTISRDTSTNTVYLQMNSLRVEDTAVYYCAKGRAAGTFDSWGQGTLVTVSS
VL: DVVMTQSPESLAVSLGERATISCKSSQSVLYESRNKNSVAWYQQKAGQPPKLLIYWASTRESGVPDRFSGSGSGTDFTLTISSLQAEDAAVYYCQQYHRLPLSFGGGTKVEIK

The parent's heavy chain CDRs are GFTLNSYGIS, VIYSDGRRTFYGDSVK, GRAAGTFDS; each variant's own CDRs replace them letter for letter.
The read-out is the apparent dissociation constant on a log10 scale (nM): the lower, the stronger.
A mean of the replicates is given; it leaves out those without a signal.
"n.d." means that the variant was in the library but no mating with the target was seen in that replicate; the authors take this as a sign of poor binding, and no number exists.
A sequence measured in both rounds can read differently, since the two assays cover different ranges.

CDR-H1 | CDR-H2 | CDR-H3 | group | replicates, log10 nM | mean log10 Kd (nM) | signal with controls
GFTLNSYGIS | VIYSDGRRTFYGDSVK | GREAGHFDS | Ctrl | 3.32 / 2.74 / 3.08 / n.d. / n.d. / 2.66 | 2.95 | 1 of 18 (3.00)
GFTLNSYGHS | VIYSDGRRTFYNDSVK | RRGAGTFDS | Ctrl | 1.52 / 1.18 / 1.90 / 1.08 / 0.72 / 1.25 | 1.27 | 0 of 18
KTTLNSYGIS | VIYSDGRRTFYTDSVK | GRAAGTFDS | Ctrl | 2.11 / 2.00 / 2.15 / 1.83 / n.d. / 2.04 | 2.03 | 0 of 18
GFTLNSYGIS | VIYSDGRRTFYGDSFV | GRAAGTFKS | Ctrl | n.d. / n.d. / n.d. / n.d. / n.d. / n.d. | n.d. | 0 of 18
GFTLNSYGIS | VIYSDGRRTFYGDSVV | GRAAGTFDD | Ctrl | n.d. / n.d. / n.d. / n.d. / n.d. / n.d. | n.d. | 0 of 18
GFTLNMYGIS | VIYSDGRRTFYGDSVK | GRQAGTFDS | Ctrl | n.d. / 1.83 / n.d. / 1.64 / 2.34 / 2.58 | 2.10 | 0 of 18
GFELNEYGIS | VIYSDGRRTFYGDSVK | GRGAGTFDL | Ctrl | n.d. / n.d. / 1.74 / 1.57 / 2.46 / 2.55 | 2.08 | 0 of 18
GFTLNSYGIS | VIYSDGRRTFYYDSVK | GRAAGTFDS | Ctrl | n.d. / n.d. / n.d. / n.d. / n.d. / n.d. | n.d. | 0 of 18
GFTLNDYGIS | VIYSDGRRTFYADQVK | GRAAGLFDS | Ctrl | n.d. / n.d. / n.d. / n.d. / n.d. / n.d. | n.d. | 0 of 18
GFAINSYGIS | VIYSDGRRTFYGDSVK | GRAAGTFDT | Ctrl | n.d. / n.d. / n.d. / n.d. / n.d. / n.d. | n.d. | 0 of 18
GFTLNSYGIS | VIYSDGRRTFYGDSVK | GSVAGTFDV | Ctrl+GPLM_Gibbs | 0.15 / 0.22 / 0.26 / 0.15 / 0.14 / 0.53; n.d. / -1.02 / -0.48 / n.d. / -0.76 / n.d. | -0.09 | 0 of 36
GFTLNEYGIS | VIYSDGRRTFYGDSVK | GRAAGTFDW | Ctrl | 1.13 / 1.84 / 0.88 / 0.85 / 0.85 / 1.38 | 1.16 | 0 of 18
GFALNSYGIS | VIYSDGRRTFYGDSVK | GRVACTFDS | Ctrl | n.d. / n.d. / n.d. / n.d. / n.d. / n.d. | n.d. | 0 of 18
GFTLNSYGIS | VIYSDGMRTAYGDSVK | GRAAGTFDS | Ctrl | 1.89 / n.d. / 1.73 / 0.89 / 1.07 / n.d. | 1.39 | 0 of 18
GFTLSSYGIS | VIYSDGRRTFYDDSVK | GRVAGTFDS | Ctrl | 2.70 / 0.49 / 0.85 / 0.45 / 0.60 / 0.86 | 0.99 | 0 of 18
GFTLDDYGIS | VIYSDGRRTFYGDSVK | GRAAGTGDS | Ctrl | n.d. / n.d. / n.d. / n.d. / n.d. / n.d. | n.d. | 0 of 18
GDTLNSYGIS | VIYSDGYRTFYGDSVK | GRAAGRFDS | Ctrl | n.d. / n.d. / n.d. / n.d. / n.d. / n.d. | n.d. | 0 of 18
GFTLNSYGIS | VIYSDGRRTFYADSVK | GRAALTFDS | Ctrl | n.d. / n.d. / n.d. / n.d. / n.d. / n.d. | n.d. | 0 of 18
GFALNSYGIS | VIYSDGRRTFYGDSVK | GRAASTFDS | Ctrl | n.d. / n.d. / n.d. / n.d. / n.d. / n.d. | n.d. | 0 of 18
GFTLNSYGIS | VIYSDGQRTFYSDSYK | GRAAGTFDS | Ctrl | n.d. / n.d. / n.d. / n.d. / n.d. / n.d. | n.d. | 0 of 18
GFTLNSYGIS | VIYSDGRRTFYGDSVK | GRAAGTFFM | Ctrl | n.d. / n.d. / n.d. / n.d. / n.d. / n.d. | n.d. | 0 of 18
GFTLNEYGIS | VIYSDGRRTFYSDSVK | GRTAGCFDS | Ctrl | 1.01 / 0.91 / 2.28 / 1.81 / 0.96 / 0.75 | 1.29 | 0 of 18
GFTLNSFGIS | VIYSDGRRTAYGDSVK | GRAAQTFDS | Ctrl | 0.41 / 0.34 / -0.13 / 0.31 / 0.03 / 0.07 | 0.17 | 0 of 18
GFTLNSYGIS | VIYSDGRRTFYGDSVK | GRIAGTFDS | Ctrl+GPLM_Gen | n.d. / n.d. / n.d. / n.d. / n.d. / n.d.; n.d. / n.d. / 0.30 / n.d. / n.d. / n.d. | 0.30 | 0 of 36
GFTKNSYGIS | VIYSDGRRTFYGDSVK | GRLAGTFDS | Ctrl | n.d. / n.d. / n.d. / n.d. / n.d. / n.d. | n.d. | 0 of 18
GFTRNSYGIS | VIYSDGRRTFYGDSVK | WRAAGTFDS | Ctrl | n.d. / n.d. / n.d. / 1.15 / n.d. / n.d. | 1.15 | 0 of 18
GFTLNSYGIS | VIYSDGRRTFYEDSVR | GRAAGTFDS | Ctrl | n.d. / 2.00 / n.d. / 3.10 / 2.10 / 3.57 | 2.69 | 0 of 18
GFTRNSYGIS | VIYSDGRRTFYHDSVK | GRAAGTFDS | Ctrl | -0.03 / 0.11 / 0.05 / -0.23 / 0.83 / 0.12 | 0.14 | 0 of 18
GFALNSYGIS | VIYSDGMRTFYGDSVK | GRAAGTSDS | Ctrl | 1.98 / 1.87 / n.d. / 1.73 / n.d. / 2.48 | 2.01 | 1 of 18 (2.31)
GFTLQDYGIS | VIYSDGRRTFYGDRVK | LRAAGTFDS | Ctrl | n.d. / n.d. / n.d. / n.d. / n.d. / n.d. | n.d. | 0 of 18
GFTLNDYGYS | VIYFDGCRTFYIDSVK | RRSAGTFDS | Ctrl | n.d. / n.d. / n.d. / n.d. / n.d. / 2.33 | 2.33 | 0 of 18
GFTPNDYGIS | VIYSDGKRTFYGDSVK | VRAADTFDW | Ctrl | n.d. / n.d. / 0.29 / 1.19 / 1.25 / n.d. | 0.91 | 0 of 18
GFTVNSYGIS | VIYSDGRRTSYADSVK | GRAAVTFDQ | Ctrl | n.d. / n.d. / n.d. / n.d. / n.d. / n.d. | n.d. | 0 of 18
GETLNDYGIS | VIYSDGRRTFYGDSVK | GRAAGTFDS | Ctrl | 0.81 / 1.62 / 2.31 / n.d. / 1.92 / n.d. | 1.67 | 0 of 18
GFTLNMYGIS | VIYADGRRTFYGGFVK | GQAPGTFDS | Ctrl | n.d. / 1.35 / 2.89 / 0.77 / 0.81 / 0.86 | 1.33 | 0 of 18
GFTLNSYGIS | VIYSDGRRTFYGDSVK | GYAAVTFDS | Ctrl | n.d. / n.d. / n.d. / n.d. / n.d. / n.d. | n.d. | 0 of 18
GFTIMEYGIS | VIYSDGLRTFYSDSVK | GKAAGTFDS | Ctrl | 1.25 / 1.85 / 0.04 / 0.13 / 0.29 / -0.56 | 0.50 | 0 of 18
GFTLNSYGIS | VIYRDGRRTFYIDSVK | GDAAGTSDS | Ctrl | n.d. / n.d. / n.d. / n.d. / n.d. / n.d. | n.d. | 0 of 18
TFTLNNYGIS | VIYSDGRRTFYGDSVK | GSAKGTFDS | Ctrl | n.d. / 0.99 / n.d. / n.d. / 0.70 / n.d. | 0.85 | 0 of 18
GFTLSSYGIS | VIYSDGRRTFYGDSVK | GRAAGTFDD | Ctrl | n.d. / n.d. / n.d. / 2.52 / n.d. / n.d. | 2.52 | 0 of 18
QFTLNSYGVS | VIYSDGRRTFYGDSVK | GYACDCFDS | Ctrl | n.d. / n.d. / n.d. / n.d. / n.d. / n.d. | n.d. | 0 of 18
KFTLNSYGIS | VIYSDGYRTFYGDSVK | GRYKGTFDS | Ctrl | n.d. / n.d. / n.d. / n.d. / n.d. / n.d. | n.d. | 0 of 18
GFTLNSYGIS | VIYSDGKRVFYGDSVK | GRAAGTFDS | Ctrl | n.d. / n.d. / n.d. / n.d. / n.d. / n.d. | n.d. | 0 of 18
GFELNSYGIS | VIYSDGCRTFYGDSVK | GREAGTGDS | Ctrl | 0.34 / n.d. / 1.76 / n.d. / n.d. / n.d. | 1.05 | 0 of 18
GFTLNDYGIS | VIYSDGRRTFYGDSVK | GEAAATFDS | Ctrl | n.d. / 1.17 / n.d. / 1.25 / 0.66 / 1.33 | 1.10 | 0 of 18
GFTLNSYGIS | VIYSDGRRTFYIDSVK | GEQAGTFDS | Ctrl | 1.85 / n.d. / 1.75 / 0.75 / 2.43 / 1.91 | 1.74 | 0 of 18
GITLNSYGIS | VIYSDGRRTFYGDNVK | GRAAGTFDS | Ctrl | n.d. / 2.57 / n.d. / 2.11 / n.d. / 2.78 | 2.49 | 1 of 18 (2.00)
GFTLELYGIS | VIYSDGRRTFYGDSVK | GRAADTFDS | Ctrl | n.d. / n.d. / n.d. / n.d. / n.d. / n.d. | n.d. | 0 of 18
GFCLNSYGIS | VIYSDGRRTFYGDSVK | GRAAGTFDS | Ctrl | n.d. / n.d. / n.d. / n.d. / n.d. / n.d. | n.d. | 0 of 18
GFTLNSYGIS | VIYSDGRRTFYGDSVR | GKAAGTFDS | Ctrl | 2.04 / 1.46 / n.d. / 2.56 / 2.56 / 1.98 | 2.12 | 0 of 18
GFTLNSYGIS | VIYSDGRRTFYGDSVK | GQQAGTFDS | Ctrl | 1.41 / n.d. / 1.02 / n.d. / n.d. / 2.75 | 1.73 | 0 of 18

The first 7 variants above that were never detected:

CDR-H1 | CDR-H2 | CDR-H3 | group | replicates, log10 nM | mean log10 Kd (nM) | signal with controls
GFTLNSYGIS | VIYSDGRRTFYGDSFV | GRAAGTFKS | Ctrl | n.d. / n.d. / n.d. / n.d. / n.d. / n.d. | n.d. | 0 of 18
GFTLNSYGIS | VIYSDGRRTFYGDSVV | GRAAGTFDD | Ctrl | n.d. / n.d. / n.d. / n.d. / n.d. / n.d. | n.d. | 0 of 18
GFTLNSYGIS | VIYSDGRRTFYYDSVK | GRAAGTFDS | Ctrl | n.d. / n.d. / n.d. / n.d. / n.d. / n.d. | n.d. | 0 of 18
GFTLNDYGIS | VIYSDGRRTFYADQVK | GRAAGLFDS | Ctrl | n.d. / n.d. / n.d. / n.d. / n.d. / n.d. | n.d. | 0 of 18
GFAINSYGIS | VIYSDGRRTFYGDSVK | GRAAGTFDT | Ctrl | n.d. / n.d. / n.d. / n.d. / n.d. / n.d. | n.d. | 0 of 18
GFALNSYGIS | VIYSDGRRTFYGDSVK | GRVACTFDS | Ctrl | n.d. / n.d. / n.d. / n.d. / n.d. / n.d. | n.d. | 0 of 18
GFTLDDYGIS | VIYSDGRRTFYGDSVK | GRAAGTGDS | Ctrl | n.d. / n.d. / n.d. / n.d. / n.d. / n.d. | n.d. | 0 of 18

A sequence that the file lists under several names has all its replicates listed entry by entry, parted by semicolons.
Three control strains display no target. For all heavy chain designs, 1% of the pairings with them gave a signal, with a median of 2.08 and one signal in twenty below 0.84, so weak values seen in few replicates may be background. Also given: how often the same scFv was detected with the empty control strains, with their mean in brackets.
Of ten entries with the parent sequence, four were seen in most replicates (averages 0.34 to 2.37), three in one and three in none, so single entries are noisy.
The authors averaged sequences with at least three values out of six and counted those with two or fewer as poor binders.